Test results as given in PubChem BioAssay AID493098 (Sanford-Burnham Center for Chemical Genomics, 2011).
This is a selection; strong and weak results do not stand in their true shares. Calls of active or inactive are those of the source.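 Rule for the calls: active = compounds whose inhibition of the agonist-driven luminescence signal at 20 µM reaches about 50% (limit read from the data); inactive = the rest.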

Sequences of proteins named here, by UniProt entry; tags and fusion partners are left off.
UniProt P51684, whole entry: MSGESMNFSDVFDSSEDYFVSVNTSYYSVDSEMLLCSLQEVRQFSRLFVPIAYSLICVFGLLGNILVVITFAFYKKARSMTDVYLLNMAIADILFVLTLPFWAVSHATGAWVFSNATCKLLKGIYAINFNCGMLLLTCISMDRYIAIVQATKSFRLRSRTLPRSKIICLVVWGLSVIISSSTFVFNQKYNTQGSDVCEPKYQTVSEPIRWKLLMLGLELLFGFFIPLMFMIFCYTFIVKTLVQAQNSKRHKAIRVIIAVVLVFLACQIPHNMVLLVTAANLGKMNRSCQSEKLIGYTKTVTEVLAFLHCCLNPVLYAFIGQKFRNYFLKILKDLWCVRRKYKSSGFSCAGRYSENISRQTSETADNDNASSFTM

molecular target: C-C chemokine receptor type 6 (Homo sapiens) (UniProt P51684); test: CCR6 receptor antagonists, primary screen, cell-based, CHO-K1, luminescence, beta-arrestin, uHTS (AID 493098); settings: CHO-K1 CCR6 PathHunter beta-arrestin, CCL20-stimulated, at 20 µM, hits give high values;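 note: cells stimulated with CCL20 at 14 nM final; plate controls were DMSO with CCL20 for no effect and DMSO without agonist for full effect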

SMILES | inhibition
COc1ccccc1OP(C)(=O)Nc1c(C)cccc1C (stereo unspecified) | inactive: 5.48%
CN1CCCCC1COC(=O)C1(O)c2ccccc2CCc2ccccc21 (stereo unspecified) | inactive: 11.7%
CCCOc1ccc(NP(C)(=O)Oc2ccc(Cl)cc2)cc1 (stereo unspecified) | inactive: 16.2%
CP(=O)(Nc1ccc(SC(F)(F)F)cc1)Oc1ccccc1 (stereo unspecified) | inactive: 4.75%
CC1=C2N=C(C=C3N=C(C(C)=C4[N-][C@@](C)([C@@H]5N=C1[C@](C)(CCC(=O)NC[C@@H](C)OP(=O)([O-])O[C@H]1[C@@H](O)[C@@H](n6cnc7cc(C)c(C)cc76)O[C@@H]1CO)[C@H]5CC(N)=O)[C@@](C)(CC(N)=O)[C@@H]4CCC(N)=O)[C@@](C)(CC(N)=O)[C@@H]3CCC(N)=O)C(C)(C)[C@@H]2CCC(N)=O.[C-]#N.[Co+3] | inactive: 14.4%
O=[N+]([O-])c1cc([N+](=O)[O-])c(Nc2nnnn2CCO)c([N+](=O)[O-])c1 | inactive: 46.8%
CCOC(=O)C(CC)C1=NC(C)(C)Cc2ccccc21.O=[N+]([O-])c1cc([N+](=O)[O-])c(O)c([N+](=O)[O-])c1 (stereo unspecified) | inactive: 32.2%
O=[N+]([O-])c1cc([N+](=O)[O-])c(-c2cnn(-c3ccccc3)c2)c([N+](=O)[O-])c1 | inactive: -30.4%
Cc1nc2ccc3ccccc3c2s1.O=[N+]([O-])c1cc([N+](=O)[O-])c(O)c([N+](=O)[O-])c1 | inactive: 31%
O=[N+]([O-])c1cc([N+](=O)[O-])c(-n2nnc3ccccc32)c([N+](=O)[O-])c1 | inactive: 14.7%
Cc1cc(C)cc(OP(C)(=O)Nc2ccccn2)c1 (stereo unspecified) | inactive: -6.63%
CP(=O)(Nc1cccc(Br)c1)Oc1ccccc1 (stereo unspecified) | inactive: -10.6%
Cc1ccc(C)c(NP(C)(=O)Oc2ccccc2)c1 (stereo unspecified) | inactive: 3.18%
COc1ccccc1OP(C)(=O)Nc1cccc(Br)c1 (stereo unspecified) | inactive: 8.38%
Cc1cc(C)cc(OP(C)(=O)Nc2ccc(C)cc2C)c1 (stereo unspecified) | inactive: 14.1%
CCOC(=O)c1ccc(NP(C)(=O)Oc2cc(C)cc(C)c2)cc1 (stereo unspecified) | inactive: 15.6%
CC1=NCCc2c1[nH]c1ccccc21.O=[N+]([O-])c1cc([N+](=O)[O-])c(O)c([N+](=O)[O-])c1 | inactive: 10.4%
O=C(O)c1cccc(Nc2c([N+](=O)[O-])cc([N+](=O)[O-])cc2[N+](=O)[O-])c1 | active: 59.5%
CCOC(=O)c1ccc(NP(C)(=O)Oc2ccccc2)cc1 (stereo unspecified) | inactive: 5.47%

SMILES | inhibition
COc1ccccc1OP(C)(=O)Nc1ccc(C)cc1 (stereo unspecified) | inactive: -8.08%
Cc1ccc(NP(C)(=O)Oc2ccccc2)c(C)c1 (stereo unspecified) | inactive: 12.1%
COc1ccccc1OP(C)(=O)Nc1cc(Cl)ccc1C (stereo unspecified) | inactive: -9.7%
COc1ccc(OP(C)(=O)Nc2cccc(F)c2)cc1 (stereo unspecified) | inactive: 13.5%
Cc1cc(C)cc(OP(C)(N)=O)c1 (stereo unspecified) | inactive: -14.6%
O=[N+]([O-])c1cc([N+](=O)[O-])c(Nc2cccnc2)c([N+](=O)[O-])c1 | inactive: 45.7%
CC(C)(C)c1ccc(OP(C)(=O)Nc2ccc(SC(F)(F)F)cc2)cc1 (stereo unspecified) | inactive: 7.73%
Cc1cccc(C)c1OP(C)(N)=O (stereo unspecified) | inactive: -4.58%
O=[N+]([O-])c1ccc2c(c1)C=Nc1ccccc1O2 | inactive: 9.76%
CCN(CC)CCCOC(=O)C(O)(c1ccccc1)c1ccccc1 | inactive: -7.09%
CCOP(C)(=S)SCC(=O)NC(C)C(=O)O (stereo unspecified) | inactive: -8.49%
CCOC(=O)c1ccc(NP(C)(=O)Oc2ccc(OC)cc2)cc1 (stereo unspecified) | inactive: 10.2%
O=[N+]([O-])c1cc([N+](=O)[O-])c(O)c([N+](=O)[O-])c1.c1ccc(Oc2ccncc2)cc1 | inactive: 17.6%
CP(=O)(Nc1ccccn1)Oc1ccc(Cl)cc1 (stereo unspecified) | inactive: -2.22%
Cc1cccc(C)c1OP(C)(=O)Nc1ccc(SC(F)(F)F)cc1 (stereo unspecified) | inactive: 14.2%
CP(=O)(Nc1ccc(SC(F)(F)F)cc1)Oc1ccc(Cl)cc1 (stereo unspecified) | inactive: 13.9%
CP(=O)(Oc1ccccc1)OC(c1ccccc1)C(F)(F)F (stereo unspecified) | inactive: 7.99%
CP(=O)(NC(=O)Nc1ccccc1)Oc1ccccc1 (stereo unspecified) | inactive: 2.17%
CCc1ccc(OP(C)(=O)N2CCN(c3ccc([N+](=O)[O-])cc3)CC2)cc1 (stereo unspecified) | inactive: 8.02%

SMILES | inhibition
Cc1cc(C)cc(OP(C)(=O)Nc2ccc(SC(F)(F)F)cc2)c1 (stereo unspecified) | inactive: 9.84%
CP(=S)(Nn1cnnc1)Oc1ccccc1 (stereo unspecified) | inactive: 3.93%
COc1ccccc1OP(C)(=O)Nc1ccccc1 (stereo unspecified) | inactive: 7.56%
CP(=O)(Nc1ccccc1Br)Oc1ccccc1 (stereo unspecified) | inactive: 1.1%
Nc1ccc2c(ccc3cccnc32)n1.O=[N+]([O-])c1cc([N+](=O)[O-])c(O)c([N+](=O)[O-])c1 | inactive: 23.9%
CP(=O)(OC12CC3CC(CC(C3)C1)C2)OC12CC3CC(CC(C3)C1)C2 | inactive: 3.17%
CCOC(=O)c1ccc(NP(C)(=O)Oc2ccc(Cl)cc2)cc1 (stereo unspecified) | inactive: 1.01%
CP(=O)(Nc1ccc(Cl)cc1)Oc1ccc(F)cc1 (stereo unspecified) | inactive: -9.82%
COc1ccccc1OP(C)(=O)Nc1ccccc1Br (stereo unspecified) | inactive: 5.74%
CC(C)(C)c1ccc(OP(C)(=O)O)cc1 | inactive: 3.27%
CN(C)C(=O)c1c([N+](=O)[O-])cc([N+](=O)[O-])cc1[N+](=O)[O-] | inactive: -9.59%
CCN(CC)CC(O)COC(=O)C(O)(c1ccccc1)C1CCCCC1 (stereo unspecified) | inactive: -4.23%
COc1ccc(OP(C)(=O)Nc2ccc(Br)cc2)cc1 (stereo unspecified) | inactive: 1.82%
CP(=O)(Oc1ccccc1)N1CCOC1=O (stereo unspecified) | inactive: 17.2%
CCc1ccc(OP(C)(=O)Nc2cccnc2)cc1 (stereo unspecified) | inactive: 7.93%
COc1ccccc1OP(C)(=O)Nc1c(C)n(C)n(-c2ccccc2)c1=O (stereo unspecified) | inactive: -4.92%
O=C(OCCCN1CCCC1)C(O)(c1ccccc1)C1CCCCC1 (stereo unspecified) | inactive: -1.04%
Cc1c(NP(C)(=O)Oc2ccc(C(C)C)cc2)c(=O)n(-c2ccccc2)n1C (stereo unspecified) | inactive: 4.56%
